ChEMBL document CHEMBL1152459, “Drugs designed to inhibit human p38 mitogen-activated protein kinase activation treat Toxoplasma gondii and Encephalitozoon cuniculi infection” (Antimicrob Agents Chemother, 2007)

Target: T1, Mitogen-activated protein kinase 1 (Toxoplasma gondii, UniProt Q5SC61)
T1 sequence (Q5SC61 whole entry): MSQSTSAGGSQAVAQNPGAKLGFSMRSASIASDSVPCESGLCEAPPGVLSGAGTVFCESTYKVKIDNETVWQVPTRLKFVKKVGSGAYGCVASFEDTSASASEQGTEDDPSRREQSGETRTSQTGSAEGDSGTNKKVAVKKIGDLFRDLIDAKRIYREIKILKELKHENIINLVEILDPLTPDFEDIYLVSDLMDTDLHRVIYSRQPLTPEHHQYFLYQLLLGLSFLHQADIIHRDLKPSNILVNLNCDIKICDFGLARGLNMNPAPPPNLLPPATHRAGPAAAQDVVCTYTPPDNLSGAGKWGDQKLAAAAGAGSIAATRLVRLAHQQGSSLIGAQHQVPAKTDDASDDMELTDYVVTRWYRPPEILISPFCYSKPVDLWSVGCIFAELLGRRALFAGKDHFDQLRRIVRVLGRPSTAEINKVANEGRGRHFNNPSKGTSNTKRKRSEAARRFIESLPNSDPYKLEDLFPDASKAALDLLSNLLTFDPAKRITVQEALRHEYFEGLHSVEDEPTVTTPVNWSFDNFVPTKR
Experiment: Inhibition of Toxoplasma gondii recombinant MAPK1 expressed in Escherichia coli
Assay type: cell-free

Structure (SMILES): C[S+]([O-])c1ccc(-c2nc(-c3ccncc3)c(-c3ccc(F)cc3)[nH]2)cc1 (stereo unspecified) [SB-203580]
- IC50: 100 nM
